Columns and labels:
[1] = molecular target: angiotensin II Type 1 receptor F204S (Serine 204) (Homo sapiens, UniProt P30556, F204S)
[2] = molecular target: angiotensin II Type 1 receptor C289W (Tryptophan 289) (Homo sapiens, UniProt P30556, C289W)
[3] = molecular target: cholecystokinin B receptor (Leucine 224) (Homo sapiens, UniProt P32239, E288K); type: cell-based
[4] = molecular target: T1, cholecystokinin B receptor L224Q (Glutamine 224) (Homo sapiens, UniProt P32239, E288K/L224Q); assay: R-SAT functional assay, cholecystokinin B receptor L224Q; type: cell-based
T1 construct: expressed in transfected cells; host or cells: NIH-3T3
T1 sequence (P32239 1-447 L224Q/E288K): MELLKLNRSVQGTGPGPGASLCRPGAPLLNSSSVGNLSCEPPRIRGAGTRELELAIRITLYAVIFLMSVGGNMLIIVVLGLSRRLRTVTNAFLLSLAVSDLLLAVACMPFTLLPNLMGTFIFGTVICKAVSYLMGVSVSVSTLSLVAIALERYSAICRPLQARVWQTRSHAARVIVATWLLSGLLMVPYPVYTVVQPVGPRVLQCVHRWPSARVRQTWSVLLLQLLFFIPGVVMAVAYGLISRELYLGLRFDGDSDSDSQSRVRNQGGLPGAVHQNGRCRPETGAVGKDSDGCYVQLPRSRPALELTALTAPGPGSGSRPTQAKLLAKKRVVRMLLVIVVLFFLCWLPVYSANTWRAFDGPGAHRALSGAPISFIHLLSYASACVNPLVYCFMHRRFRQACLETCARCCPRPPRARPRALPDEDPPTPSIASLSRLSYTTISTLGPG

Chains of the proteins cited; added tags and fusions are not shown.
UniProt P30556, whole entry F204S, looked up: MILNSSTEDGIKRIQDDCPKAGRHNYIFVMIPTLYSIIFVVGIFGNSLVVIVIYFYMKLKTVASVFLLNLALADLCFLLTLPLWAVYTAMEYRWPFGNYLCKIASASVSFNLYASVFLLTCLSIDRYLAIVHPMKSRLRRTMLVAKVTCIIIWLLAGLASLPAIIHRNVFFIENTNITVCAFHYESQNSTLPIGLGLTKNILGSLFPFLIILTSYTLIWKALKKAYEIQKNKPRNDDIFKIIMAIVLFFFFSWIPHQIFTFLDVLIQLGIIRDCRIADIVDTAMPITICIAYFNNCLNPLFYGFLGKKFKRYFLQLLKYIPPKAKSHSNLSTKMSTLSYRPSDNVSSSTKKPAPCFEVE
UniProt P30556, whole entry C289W, looked up: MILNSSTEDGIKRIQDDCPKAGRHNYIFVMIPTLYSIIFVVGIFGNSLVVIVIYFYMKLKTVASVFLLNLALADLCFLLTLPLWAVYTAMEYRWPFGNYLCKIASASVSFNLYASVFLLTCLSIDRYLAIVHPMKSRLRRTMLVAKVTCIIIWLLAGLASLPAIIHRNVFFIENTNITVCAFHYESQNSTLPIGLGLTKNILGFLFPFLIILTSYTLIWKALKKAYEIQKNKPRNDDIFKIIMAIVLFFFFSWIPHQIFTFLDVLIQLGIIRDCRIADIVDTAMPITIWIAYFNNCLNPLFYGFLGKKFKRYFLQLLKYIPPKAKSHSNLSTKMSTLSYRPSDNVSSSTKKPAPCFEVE

| Substance | FOLD [1] [fold] | FOLD [2] [fold] | Ave −Log EC50 [3] | Ave −Log EC50 [4] |
| --- | --- | --- | --- | --- |
| Angiotensin 2 | 63 | 13 |  |  |
| CCK-4 |  |  | 7.10 | 8.18 |

Reference: US7348140B1, “Clinical indications for genotyping polymorphic variants of G-protein coupled receptors” (Acadia Pharmaceuticals, Inc., priority 2001, dated 2008)
